{"source": "patent US8575391B2", "about": "“5-substituted-2-phenylamino benzamides as MEK inhibitors” (priority 2004, dated 2013)", "tested_on": "Human colon cancer cell line HT-29", "test": "Tumor growth suppressive activity in mouse model carrying human cancer (HT-29 xenograft)", "settings": "HT-29 subcutaneous in BALB/c nu/nu mice, oral once a day for 14 days", "data": [{"smiles": "C#Cc1ccc(Nc2c(C(=O)NOCCO)cc(CN3OCCCC3=O)c(F)c2F)c(F)c1", "note": "[Compound G-4, 2-(4-Ethynyl-2-fluoro-phenylamino)-3,4-difluoro-N-(2-hydroxy-ethoxy)-5-(3-oxo-[1,2]oxadinan-2-ylmethyl)-benzamide]", "values": [{"measurement": "Tumor growth suppression rate at maximum tolerance dose (MTD) 1 day after last administration", "result": 112, "unit": "%"}]}]}
